Results as given in patent US9969796B2, “Peptides and binding partners therefor” (priority 2013, dated 2018).

Tested on: EGFR signalling in oral epithelial cells (TR146)
Format: cell-based, human

Compound: COc1cc2ncnc(Nc3ccc(F)c(Cl)c3)c2cc1OCCCN1CCOCC1 [Gefitnib]
- activation of MAPK intracellular signalling (phosphorylated p38, JNK and ERK1/2): inhibits
